# Experimental data: patent US5314998A, “Organic solvent-soluble metal-azo and metal-azomethine dyes” (Minnesota Mining and Manufacturing Company, priority 1992, dated 1994)
# Tests used:
# [1] = Solubility in heptane (absorbance at maximum), four-coordinate platinum metal-azo complexes; format: physicochemical; settings: ambient temperature
# Excerpt: ^b result obtained by measuring in a 1 cm cell and dividing result by
# ^c estimate based on fitting the spectrum in the 510-550 nm region.
# [2] = Solubility in heptane (absorbance at maximum of saturated solution), chromium metal-azo complexes; format: physicochemical; settings: room temperature (22° C.)
# Procedure: The samples were prepared by shaking the dye in heptane for several hours, allowing the samples to sit overnight, and filtering through a plug of glass wool to remove particulates.
substance,measurement,setting,value
"[[2,2-azobis[phenolato]](-2)-N,O,O](ethyl nicotinate)platinum [Compound 18]",Absorbance at Maximum in Heptane/1 mm Cell,[1]; measured in a 1 cm cell and result divided by 10,0.08
"[[2,2-azobis[phenolato]](-2)-N,O,O](2,4-pentanedionato-O,O)(4-(5-nonyl)pyridine)chromium [Compound 29]",Absorbance at Maximum in Heptane/1 mm Cell,[2],2.69
"[[2,2-azobis[phenolato]](-2)-N,O,O](4-(5-nonyl)pyridine)platinum [Compound 19]",Absorbance at Maximum in Heptane/1 mm Cell,[1]; estimate based on fitting the spectrum in the 510-550 nm region,8.17
